Results reported in patent publication US6039820A, “Metal complexes for use as gas generants” (dated 2000).

Tests used:
rat = settings: cited from earlier work
[1] = accelerated aging of pressed pellets in 95° C. oven, weight loss; settings: four gram 1/2 inch pellets, 95° C. oven for 700 hours

[N-]=[N+]=[N-]
toxicity level as measured by oral rat LD50 (rat): 45 mg/kg

hexaamminecobalt(III) nitrate
loss in weight after aging [1]: No loss in weight
